Tests used:
[1] = target: JNK1 (Homo sapiens, UniProt P45983); assay: ThermoFisher SelectScreen, JNK1; assay type: binding; details: in-pathway
[2] = target: CLK2 (Homo sapiens, UniProt P49760); assay: ThermoFisher SelectScreen, CLK2; assay type: binding; details: Opportunistic
[3] = target: JNK2 (Homo sapiens, UniProt P45984); assay: ThermoFisher SelectScreen, JNK2; assay type: binding; details: in-pathway
[4] = system: 480 kinases; assay: Eurofins KINOMEscan selectivity profile; assay type: binding
[5] = target: CSNK1E (Homo sapiens, UniProt P49674); assay: ThermoFisher SelectScreen, CSNK1E; assay type: binding; details: out-of-pathway
[6] = target: CLK3 (Homo sapiens, UniProt P49761); assay: ThermoFisher SelectScreen, CLK3; assay type: binding; details: out-of-pathway
[7] = target: ERK2 (Homo sapiens, UniProt P28482); assay: ThermoFisher SelectScreen, ERK2; assay type: binding; details: Opportunistic
[8] = target: JNK3 (Homo sapiens, UniProt P53779); assay: ThermoFisher SelectScreen, JNK3; assay type: binding; details: in-pathway
[9] = target: CSNK1D (Homo sapiens, UniProt P48730); assay: ThermoFisher SelectScreen, CSNK1D; assay type: binding; details: out-of-pathway
[10] = target: RIPK4 (Homo sapiens, UniProt P57078); assay: ThermoFisher SelectScreen, RIPK4; details: out-of-pathway
[11] = target: MEK4 (Homo sapiens, UniProt P45985); assay: ThermoFisher SelectScreen, MEK4; assay type: binding

Sequences of proteins named here, by UniProt entry; tags and fusion partners are left off. A change or cut given only in a name is not applied to a line headed by its entry.
UniProt P45983: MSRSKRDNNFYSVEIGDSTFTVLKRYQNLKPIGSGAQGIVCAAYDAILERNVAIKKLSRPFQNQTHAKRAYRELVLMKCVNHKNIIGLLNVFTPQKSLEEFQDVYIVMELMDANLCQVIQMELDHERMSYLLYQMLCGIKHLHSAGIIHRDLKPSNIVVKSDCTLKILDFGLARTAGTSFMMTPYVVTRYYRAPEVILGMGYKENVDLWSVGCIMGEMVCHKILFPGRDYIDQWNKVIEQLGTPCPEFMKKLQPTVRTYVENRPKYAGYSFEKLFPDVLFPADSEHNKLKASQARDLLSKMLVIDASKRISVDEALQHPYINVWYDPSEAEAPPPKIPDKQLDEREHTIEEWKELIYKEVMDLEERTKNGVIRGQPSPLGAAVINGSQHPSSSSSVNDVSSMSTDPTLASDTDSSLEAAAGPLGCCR
UniProt P49760, whole entry, looked up: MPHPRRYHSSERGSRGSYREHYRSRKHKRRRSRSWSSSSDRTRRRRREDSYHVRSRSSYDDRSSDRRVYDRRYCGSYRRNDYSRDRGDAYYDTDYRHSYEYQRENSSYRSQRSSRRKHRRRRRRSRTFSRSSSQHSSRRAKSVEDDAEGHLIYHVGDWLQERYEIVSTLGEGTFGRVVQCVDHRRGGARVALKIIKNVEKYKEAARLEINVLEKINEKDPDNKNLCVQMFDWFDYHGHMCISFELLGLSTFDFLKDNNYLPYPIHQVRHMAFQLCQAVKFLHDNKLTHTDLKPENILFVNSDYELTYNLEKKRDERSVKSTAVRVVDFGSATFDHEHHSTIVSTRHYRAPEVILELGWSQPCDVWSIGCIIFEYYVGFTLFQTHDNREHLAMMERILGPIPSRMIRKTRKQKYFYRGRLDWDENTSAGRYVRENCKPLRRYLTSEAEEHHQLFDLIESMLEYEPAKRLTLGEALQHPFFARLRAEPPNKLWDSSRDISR
UniProt P49674: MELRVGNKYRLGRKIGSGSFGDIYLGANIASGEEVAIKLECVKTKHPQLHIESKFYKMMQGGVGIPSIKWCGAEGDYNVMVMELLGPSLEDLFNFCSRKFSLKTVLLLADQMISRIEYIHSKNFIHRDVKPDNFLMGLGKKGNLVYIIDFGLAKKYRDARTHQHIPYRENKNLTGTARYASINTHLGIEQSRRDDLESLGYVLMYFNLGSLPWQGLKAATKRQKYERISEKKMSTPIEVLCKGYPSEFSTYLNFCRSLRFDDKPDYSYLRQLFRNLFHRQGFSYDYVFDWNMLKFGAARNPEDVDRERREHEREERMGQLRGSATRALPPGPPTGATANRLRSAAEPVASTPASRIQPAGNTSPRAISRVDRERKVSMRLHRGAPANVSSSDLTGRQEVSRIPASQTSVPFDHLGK
UniProt P49761: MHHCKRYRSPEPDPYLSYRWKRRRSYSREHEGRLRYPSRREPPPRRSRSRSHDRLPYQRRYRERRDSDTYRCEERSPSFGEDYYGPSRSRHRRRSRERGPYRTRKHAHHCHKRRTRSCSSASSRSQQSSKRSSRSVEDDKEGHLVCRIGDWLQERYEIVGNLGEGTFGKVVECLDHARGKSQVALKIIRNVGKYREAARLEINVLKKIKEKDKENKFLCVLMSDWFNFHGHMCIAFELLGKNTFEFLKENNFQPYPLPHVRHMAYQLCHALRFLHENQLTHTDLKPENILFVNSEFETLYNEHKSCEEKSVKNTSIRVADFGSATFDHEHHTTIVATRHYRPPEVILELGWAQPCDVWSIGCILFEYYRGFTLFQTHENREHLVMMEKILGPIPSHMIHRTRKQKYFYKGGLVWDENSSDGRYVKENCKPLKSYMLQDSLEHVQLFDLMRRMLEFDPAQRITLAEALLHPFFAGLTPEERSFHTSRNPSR
UniProt P28482, whole entry, looked up: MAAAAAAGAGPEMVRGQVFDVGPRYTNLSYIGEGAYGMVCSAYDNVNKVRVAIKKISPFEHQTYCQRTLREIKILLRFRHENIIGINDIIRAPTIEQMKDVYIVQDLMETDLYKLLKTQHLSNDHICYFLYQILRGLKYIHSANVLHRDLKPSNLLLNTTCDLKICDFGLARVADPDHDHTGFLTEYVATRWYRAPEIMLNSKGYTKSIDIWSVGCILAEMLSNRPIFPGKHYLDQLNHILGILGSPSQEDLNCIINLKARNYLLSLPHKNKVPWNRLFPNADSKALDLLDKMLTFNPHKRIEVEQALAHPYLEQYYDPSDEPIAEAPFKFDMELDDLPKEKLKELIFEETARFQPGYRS
UniProt P53779: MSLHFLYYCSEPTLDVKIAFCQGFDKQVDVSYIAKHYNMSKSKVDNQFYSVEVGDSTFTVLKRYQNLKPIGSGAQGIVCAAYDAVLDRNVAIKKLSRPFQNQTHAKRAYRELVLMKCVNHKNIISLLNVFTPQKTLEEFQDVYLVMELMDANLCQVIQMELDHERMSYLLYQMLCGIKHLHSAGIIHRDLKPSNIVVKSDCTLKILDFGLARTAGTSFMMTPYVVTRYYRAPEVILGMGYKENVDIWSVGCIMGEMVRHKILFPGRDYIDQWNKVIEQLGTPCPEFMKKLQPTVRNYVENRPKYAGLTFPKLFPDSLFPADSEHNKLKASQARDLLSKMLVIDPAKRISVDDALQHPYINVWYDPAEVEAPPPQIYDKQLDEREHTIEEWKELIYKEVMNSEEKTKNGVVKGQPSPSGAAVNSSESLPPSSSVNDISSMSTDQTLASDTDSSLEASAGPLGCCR
UniProt P48730: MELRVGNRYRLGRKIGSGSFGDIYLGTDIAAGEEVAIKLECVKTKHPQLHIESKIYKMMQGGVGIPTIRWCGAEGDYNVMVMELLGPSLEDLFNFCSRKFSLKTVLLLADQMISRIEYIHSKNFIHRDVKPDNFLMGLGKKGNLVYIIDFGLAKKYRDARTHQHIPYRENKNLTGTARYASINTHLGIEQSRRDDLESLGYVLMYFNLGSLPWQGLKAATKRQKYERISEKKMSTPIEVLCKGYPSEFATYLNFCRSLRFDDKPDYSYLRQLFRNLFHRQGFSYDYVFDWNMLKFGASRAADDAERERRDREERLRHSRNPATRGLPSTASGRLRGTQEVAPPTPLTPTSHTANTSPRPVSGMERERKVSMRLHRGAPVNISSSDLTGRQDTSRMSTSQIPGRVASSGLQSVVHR
UniProt P57078: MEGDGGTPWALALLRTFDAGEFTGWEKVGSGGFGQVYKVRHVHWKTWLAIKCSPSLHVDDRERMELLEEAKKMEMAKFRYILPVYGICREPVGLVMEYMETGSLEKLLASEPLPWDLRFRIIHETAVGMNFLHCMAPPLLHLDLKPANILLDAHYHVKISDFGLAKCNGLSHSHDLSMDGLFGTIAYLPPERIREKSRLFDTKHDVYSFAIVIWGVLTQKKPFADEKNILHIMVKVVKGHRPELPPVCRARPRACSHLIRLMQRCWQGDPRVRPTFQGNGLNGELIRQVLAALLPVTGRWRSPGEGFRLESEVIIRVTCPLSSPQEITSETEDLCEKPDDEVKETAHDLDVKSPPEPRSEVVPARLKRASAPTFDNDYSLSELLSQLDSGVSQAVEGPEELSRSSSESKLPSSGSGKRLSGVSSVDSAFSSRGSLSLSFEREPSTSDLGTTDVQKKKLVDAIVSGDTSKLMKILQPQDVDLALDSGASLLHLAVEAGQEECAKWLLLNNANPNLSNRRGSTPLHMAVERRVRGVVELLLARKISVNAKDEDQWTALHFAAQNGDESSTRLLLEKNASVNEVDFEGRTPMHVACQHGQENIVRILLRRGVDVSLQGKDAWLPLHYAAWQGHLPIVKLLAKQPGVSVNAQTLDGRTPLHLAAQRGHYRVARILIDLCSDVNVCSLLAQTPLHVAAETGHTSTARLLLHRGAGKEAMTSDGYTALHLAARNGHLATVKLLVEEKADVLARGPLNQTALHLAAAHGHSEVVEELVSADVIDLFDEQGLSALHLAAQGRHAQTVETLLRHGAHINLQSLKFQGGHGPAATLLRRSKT
UniProt P45985: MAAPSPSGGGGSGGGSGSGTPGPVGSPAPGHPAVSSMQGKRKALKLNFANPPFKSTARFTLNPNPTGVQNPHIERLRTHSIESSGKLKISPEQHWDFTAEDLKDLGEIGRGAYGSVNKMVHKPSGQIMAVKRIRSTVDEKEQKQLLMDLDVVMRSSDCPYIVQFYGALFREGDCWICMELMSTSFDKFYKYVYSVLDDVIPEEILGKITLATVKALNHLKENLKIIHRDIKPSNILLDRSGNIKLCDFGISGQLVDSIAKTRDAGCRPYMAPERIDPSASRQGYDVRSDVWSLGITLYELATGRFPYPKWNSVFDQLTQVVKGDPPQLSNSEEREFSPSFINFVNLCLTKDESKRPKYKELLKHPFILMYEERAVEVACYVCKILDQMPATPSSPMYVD

CN(C)C(=O)c1cc(NC(=O)c2cc3c(-c4cnc5[nH]ccc5c4)cccc3s2)ccc1O [CDD-2728, N-(3-(dimethylcarbamoyl)-4-hydroxyphenyl)-4-(1H-pyrrolo[2,3-b]pyridin-5-yl)benzo[b]thiophene-2-carboxamide]
Selectivity ratio (SR) JNK1 relative to JNK1 [1]: 1 | Selectivity ratio (SR) CLK2 relative to JNK1 [2]: 133 | Selectivity ratio (SR) JNK2 relative to JNK1 [3]: 3 | KINOMEscan selectivity / inhibition ([4]; Bentamapimod and Tanzisertib at 1 μM): No activity of CDD-2728 was detected for Atypical, Mutant, or Lipid kinases | selectivity for five of the out-of-pathway kinase targets ([4]; confirmed by ThermoFisher SelectScreen): over 500 fold | selectivity among the MEK family relative to pazopanib ([4]; in words): far more selective than pazopanib | Selectivity ratio (SR) CSNK1E relative to JNK1 [5]: 596 | Selectivity ratio (SR) CLK3 relative to JNK1 [6]: 568 | Selectivity ratio (SR) ERK2 relative to JNK1 [7]: 505 | Selectivity ratio (SR) JNK3 relative to JNK1 [8]: 2 | Selectivity ratio (SR) CSNK1D relative to JNK1 [9]: 511 | Selectivity ratio (SR) RIPK4 relative to JNK1 [10]: > 500 | Selectivity ratio (SR) MEK4 relative to JNK1 ([11]; in-pathway): 7.6 | selectivity for in-pathway target ([11]; in-pathway target): 7 fold

— US20260294922A1, “Inhibitors of JUN N-Terminal Kinases (JNK1, JNK2, and/or JNK3) and Mitogen-Activated Protein Kinases (MAPK8, MAPK9, and/or MAPK10) and Methods of Using Same” (Baylor College of Medicine, priority 2023, published 2026)
